The numbers were not newly measured in patent US20040167185A1, “Methods of treating conditions associated with an Edg-3 receptor” (priority 2003, published 2004), which cites them from elsewhere.

As usually defined, the Kd is the concentration at which binding is half-saturated.

For the data set, the target named is Adrenergic α2.

Regarding `COC(=O)[C@H]1[C@H]2C[C@H]3c4[nH]c5ccccc5c4CCN3C[C@H]2CC[C@@H]1O` [^3H Rauwolscine, Rauwolscine], the Kd was 7.8 nM.
